Literature values in patent publication US9961896B2, “Cleaning liquid” (priority 2013, dated 2018).

Settings: Table 5, comparison water treatments; cited from earlier work

chlorine
Does not degrade into or react with other pool or spa chemicals to form harmful disinfection by roducts: No | Low order of toxicity or preferably non toxic to humans, animals and plant life: Yes | Safe to handle: No | Suitable shelf life at storage temperatures for a minimum of 1 year: No
